Assay [1] is described as follows: Selectivity ratio of EC50 for alpha1B adrenoreceptor in rat spleen to EC50 for alpha1A adrenoreceptor in rabbit urethra. Format: tissue-based.
A short description of assay [2]: Selectivity ratio of Ki for hamster alpha1B adrenoreceptor to Ki for alpha1A adenoreceptor in rat submaxillary gland.
Assay [3] deals with Alpha-1D adrenergic receptor (Rattus norvegicus) (UniProt P23944). Description: Agonist activity at alpha1D adrenoreceptor in Rattus norvegicus (rat) aorta.

Protein sequences, listed by entry. Tags and fused reporters are not part of them.
UniProt P23944, whole entry: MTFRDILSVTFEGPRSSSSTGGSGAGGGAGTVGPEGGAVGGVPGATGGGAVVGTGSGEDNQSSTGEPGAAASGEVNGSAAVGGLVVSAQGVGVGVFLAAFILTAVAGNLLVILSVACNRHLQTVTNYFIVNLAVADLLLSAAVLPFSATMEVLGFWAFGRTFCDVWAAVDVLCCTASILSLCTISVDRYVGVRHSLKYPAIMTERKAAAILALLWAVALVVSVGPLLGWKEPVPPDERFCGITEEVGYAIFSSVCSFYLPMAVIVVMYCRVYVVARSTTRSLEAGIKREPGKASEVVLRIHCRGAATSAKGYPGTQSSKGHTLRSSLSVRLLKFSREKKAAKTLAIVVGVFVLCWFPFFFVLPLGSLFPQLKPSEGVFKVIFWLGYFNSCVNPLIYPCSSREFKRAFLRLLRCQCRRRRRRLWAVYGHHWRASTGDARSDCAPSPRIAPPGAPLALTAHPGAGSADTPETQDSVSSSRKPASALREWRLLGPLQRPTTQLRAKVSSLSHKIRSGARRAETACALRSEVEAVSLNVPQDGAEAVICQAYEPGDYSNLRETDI

The structures appear in SMILES notation. The source made the active and inactive calls. No cut-off for these calls is given here.

Take `CS(=O)(=O)Nc1cccc2c1CCCC2c1c[nH]cn1` (stereo not drawn): the Ratio EC50 in assay [1] came to 10. Further, in assay [2], the Ratio Ki was determined as 30. Besides, the result in assay [3] was inactive.

Values taken from ChEMBL document CHEMBL3046380, “In Vitro and In Vivo Characterization of Alpha-1A Selective Agonists and Their Utility for Stress Incontience” (Med Chem Res, 2004).
